In assay [1] the target is Sphingosine 1-phosphate receptor 3 (Homo sapiens, UniProt Q99500). Particulars: cho.
For assay [2], the target named is Sphingosine 1-phosphate receptor 1 (Homo sapiens, UniProt P21453). Particulars: chem1.

The chains behind the UniProt entries cited, without tags or fusion partners.
UniProt Q99500, whole entry, looked up: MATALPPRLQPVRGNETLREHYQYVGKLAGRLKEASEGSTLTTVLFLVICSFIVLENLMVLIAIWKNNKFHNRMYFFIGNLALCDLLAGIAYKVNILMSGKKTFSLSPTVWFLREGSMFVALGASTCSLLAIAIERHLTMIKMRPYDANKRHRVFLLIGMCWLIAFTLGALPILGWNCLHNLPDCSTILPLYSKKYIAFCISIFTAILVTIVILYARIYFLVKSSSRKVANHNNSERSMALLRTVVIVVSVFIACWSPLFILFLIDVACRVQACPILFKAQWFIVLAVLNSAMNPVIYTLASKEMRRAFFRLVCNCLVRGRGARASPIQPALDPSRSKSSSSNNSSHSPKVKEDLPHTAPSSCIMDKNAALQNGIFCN
UniProt P21453, whole entry, looked up: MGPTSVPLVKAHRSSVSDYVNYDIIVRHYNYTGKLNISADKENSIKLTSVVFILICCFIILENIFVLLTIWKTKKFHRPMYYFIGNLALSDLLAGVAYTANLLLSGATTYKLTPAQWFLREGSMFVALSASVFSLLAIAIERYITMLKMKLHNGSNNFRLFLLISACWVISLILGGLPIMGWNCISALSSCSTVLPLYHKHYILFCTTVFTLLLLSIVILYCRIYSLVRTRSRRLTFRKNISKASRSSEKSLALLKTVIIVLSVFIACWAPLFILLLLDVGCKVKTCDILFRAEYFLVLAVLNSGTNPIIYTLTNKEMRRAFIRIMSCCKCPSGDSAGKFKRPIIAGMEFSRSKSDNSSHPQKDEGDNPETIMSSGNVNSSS

Turning to `C=P(O)(O)OCC(N)(CO)CCc1ccc(-c2ccc(SCc3ccccc3)cc2)cc1Cl` (configuration not stated), the figures for the EC50 in assay [1] and in assay [2] were greater than 1000 nM and 2.1 nM, respectively.

For the origin of these results see ChEMBL document CHEMBL1156200, “Removal of sphingosine 1-phosphate receptor-3 (S1P(3)) agonism is essential, but inadequate to obtain immunomodulating 2-aminopropane-1,3-diol S1P(1) agonists with reduced effect on heart rate” (J Med Chem, 2010).
